8 molecules from patent US10464925B2 can be followed below.

Read-outs that look alike come from different tables or passages of the source.

One test deals with T1, CRBN (Homo sapiens, UniProt Q96SW2).
T1 construct: endogenous in cells
Kind of test: Intracellular CRBN Engagement Assay (dFKBP7 rescue). The class given is cell-based.

For test [1], the target named is T2, FKBP12 (Homo sapiens, UniProt P62942). The note with it: for reduction of FKBP12: MV4-11, 0.01 μM, 18 h.
Test [2] addresses fusion of FKBP12 to nanoluciferase (Homo sapiens, UniProt P62942+Q96SW2). Kind of test: FKBP Dual Luciferase Assay, wild-type 293FT, FKBP12. The note with it: read-out: Max Degradation (dual luciferase, %) FKBP.
For test [3], the target named is T2, FKBP12. The note with it: 18 h.
The target in test [4] is fusion of mutant FKBP12 to nanoluciferase (Homo sapiens, UniProt P62942+Q96SW2, F37V). Kind of test: FKBP Dual Luciferase Assay, wild-type 293FT, mutant FKBP12 (36V). The note with it: read-out: Max Degradation (dual luciferase, %) FKBP 36V.
A further test deals with FKBP12 (WT) (Homo sapiens, UniProt P62942). The experiment in a line: FKBP12 (WT) Ligand-Displacement AlphaScreen Assay.
In a further test the target is FKBP12 (36V) (Homo sapiens, UniProt P62942, F37V). The experiment in a line: FKBP12 (36V) Ligand-Displacement AlphaScreen Assay. A general note: Alpha assays give light when donor and acceptor beads are brought close together.
The next test concerns MOLT4. Kind of test: Cell viability, ATPlite 48 hours, MOLT4. The note with it: Homo sapiens, MOLT-4, read-out: IC50 (nM) MOLT4.
A further test deals with CRBN-DDB1 (Homo sapiens, UniProt Q96SW2). Kind of test: CRBN-DDB1 Ligand-Displacement AlphaScreen Assay (thalidomide competition).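 Note: streptavidin donor and nickel chelate acceptor bead proximity signal after 30 min incubation, normalized with no-protein background as 0% and DMSO wells as 100% activity.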 The note with it: biotin-thalidomide competition.
A further test deals with BRD4 (Homo sapiens, UniProt O60885). Kind of test: BRD4 Cell Western (BRD4 levels in 293T cells, LiCOR). The note with it: read-out: BRD4 DC50 (nM) Cell Western, 4 hours.
For test [5], the target named is BRD4 adjoined to nanoluciferase (Nluc) (Homo sapiens, UniProt O60885+Q96SW2). Kind of test: BRD4 Dual Luciferase Assay.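 Note: transduced reporter cells exposed to compound for 4 h, then Nluc and Fluc luminescence read, each normalized to DMSO controls and expressed as Nluc/Fluc ratio per well.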
[6] abbreviates: competition with 80 nM dFKBP7, 3 hours, read-out: FKBP7 rescue (EC50).

In the case of `Cc1sc2c(c1C)C(c1ccc(Cl)cc1)=N[C@@H](CC(=O)NCCCCCCNC(=O)COc1cccc3c1C(=O)N(C1CCC(=O)NC1=O)C3=O)c1nnc(C)n1-2` (stereo partly drawn) [dBET5], the concentration giving a half-maximal response (EC50) at CRBN (setting [6]) was 27000 nM.
Regarding `CCC(C)(C)C(=O)C(=O)N1CCCC[C@H]1C(=O)O[C@H](CCc1ccc(OC)c(OC)c1)c1cccc(NC(=O)CCC(=O)NCCCCNC(=O)COc2cccc3c2C(=O)N(C2CCC(=O)NC2=O)C3=O)c1` (stereo partly drawn) [dFKBP-1], at FKBP12 [1], the “improvement in potency as compared to conjugated PROTAC ligands” value worked out at 1000 fold. In addition, on FKBP12 [1], the “reduction of FKBP12” value is 50%. Besides, the Dmax in test [2] worked out at 44%; in test [4], 35%. Moreover, the “degradation of FKBP12” value at FKBP12 [3] (293FT-CRBN−/− cells) was “unaffected”; at FKBP12 [3] (293FT-WT cells) it was “potent, dose-dependent degradation of FKBP12”.
Consider `CCC(C)(C)C(=O)C(=O)N1CCCC[C@H]1C(=O)O[C@H](CCc1ccc(OC)c(OC)c1)c1cccc(NC(=O)CCC(=O)NCCCOCCOCCOCCCNC(=O)COc2cccc3c2C(=O)N(C2CCC(=O)NC2=O)C3=O)c1` (stereo partly drawn), for which the “reduction of FKBP12” value on FKBP12 [1] stood at 50%. The IC50 at FKBP12 (WT) was determined as 218 nM; on FKBP12 (36V) it was 174 nM. Also, the results for the Dmax in test [2] and in test [4] were 53% and 43%, respectively.
With `Cc1sc2c(c1C)C(c1ccc(Cl)cc1)=N[C@@H](CC(=O)NCCCOCCOCCOCCCNC(=O)COc1cccc3c1C(=O)N(C1CCC(=O)NC1=O)C3=O)c1nnc(C)n1-2` (stereo partly drawn) [dBET9], the IC50 in the test with MOLT4 stood at 1500 nM.
`CC[C@@H]1C(=O)N(C)c2cnc(Nc3ccc(C(=O)NCCCCCCNC(=O)COc4cccc5c4C(=O)N(C4CCC(=O)NC4=O)C5=O)cc3OC)nc2N1C1CCCC1` (stereo partly drawn) [dBET7] yielded an IC50 on CRBN-DDB1 of 417 nM. On CRBN, this molecule had an EC50 of 217000 nM. In addition, the DC50 on BRD4 is 7.1 nM.
In turn, `Cc1sc2c(c1C)C(c1ccc(Cl)cc1)=N[C@@H](CC(=O)NCCCCCCNC(=O)c1ccc3c(c1)C(=O)N(C1CCC(=O)NC1=O)C3=O)c1nnc(C)n1-2` (stereo partly drawn) [dBET15] yielded an EC50 at CRBN of 48200 nM.
For the molecule `Cc1sc2c(c1C)C(c1ccc(Cl)cc1)=N[C@@H](CC(=O)NCCNC(=O)COc1cccc3c1C(=O)N(C1CCC(=O)NC1=O)C3=O)c1nnc(C)n1-2` (stereo partly drawn) [dBET3], on CRBN (setting [6]), the concentration for a half-maximal effect (EC50) was 47500 nM.
On to `COC(=O)C[C@@H]1N=C(c2ccc(Cl)cc2)c2c(sc(C(=O)NCCCCNC(=O)COc3cccc4c3C(=O)N(C3CCC(=O)NC3=O)C4=O)c2C)-n2c(C)nnc21` (stereo partly drawn) [dBET22], for which the Dmax in test [5] (read-out: BRD4 max degradation(%) Dual Luciferase) amounted to 73%; in test [5] (read-out: max degradation (dual luc)), 72.7%. In addition, in test [5] (read-out: BRD4− Emax (percent remaining)), the Emax stood at 26.3%.

The term EC50 denotes the concentration giving half of the maximal effect. Usually IC50 stands for the point on the concentration scale where inhibition reaches its midpoint. Broadly, the Emax is the maximal effect, on the per cent scale that the assay sets.
